Assay: Skin permeation, Franz diffusion cells
Type: in vitro ADME, human
Procedure: The flux can be measured with a standard procedure using Franz diffusion cells, and the experiments were done on human cadaver skin. With Franz cells, in each Franz diffusion cell a disc (diameter of 25 mm) of human cadaver skin is placed on the receptor compartment. A transdermal delivery system is cut the same size as the skin and placed over the diffusion area in the center of the receptor. The donor compartment is then added and clamped to the assembly. At time 0, receptor medium solution 14 mL is added into the receptor compartment and the cell maintained at 32° C. Samples of the receptor compartment are taken periodically to determine the skin flux and analyzed by HPLC.
Skin permeation of various formulations were tested. The results are provided in FIGS. 1, and 2 and Tables 5 and 6. Higher the amount of the galantamine in the adhesives will increase the penetration, but when over the saturation point, the transdermal system will crystalize, and result a low penetration rate.
When adding an enhancer, it might improve the penetration rate. […] When increase the amount of the enhancer, it might not improve the penetration rate.
A co-solvent helps dissolving the drug in the adhesive but it might also help with the penetration rate.

Substance | Enhancement Ratio
oleoyl macrogol-6 glycerides [Labrafil M 1944CS] | 1
tocopherol polyethylene glycol succinate [Vitamin E TPGS] | 1
